The record followed here is ChEMBL document CHEMBL5532642, “Targeting protein kinases for the treatment of Alzheimer's disease: Recent progress and future perspectives” (Eur J Med Chem, 2023).

Sequences of proteins named here, by UniProt entry; tags and fusion partners are left off. A change or cut given only in a name is not applied to a line headed by its entry.
UniProt P45984: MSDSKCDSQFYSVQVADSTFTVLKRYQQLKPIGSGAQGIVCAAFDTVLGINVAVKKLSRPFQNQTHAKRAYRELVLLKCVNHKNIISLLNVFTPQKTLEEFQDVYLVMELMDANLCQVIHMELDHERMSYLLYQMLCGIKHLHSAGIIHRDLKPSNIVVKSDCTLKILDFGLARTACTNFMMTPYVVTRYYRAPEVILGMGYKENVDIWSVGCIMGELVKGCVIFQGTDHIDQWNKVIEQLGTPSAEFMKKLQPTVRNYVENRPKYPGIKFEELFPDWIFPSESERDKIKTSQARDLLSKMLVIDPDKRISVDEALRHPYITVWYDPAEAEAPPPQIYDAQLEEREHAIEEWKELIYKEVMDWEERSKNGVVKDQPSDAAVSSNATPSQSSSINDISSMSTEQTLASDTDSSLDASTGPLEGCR
UniProt P53779: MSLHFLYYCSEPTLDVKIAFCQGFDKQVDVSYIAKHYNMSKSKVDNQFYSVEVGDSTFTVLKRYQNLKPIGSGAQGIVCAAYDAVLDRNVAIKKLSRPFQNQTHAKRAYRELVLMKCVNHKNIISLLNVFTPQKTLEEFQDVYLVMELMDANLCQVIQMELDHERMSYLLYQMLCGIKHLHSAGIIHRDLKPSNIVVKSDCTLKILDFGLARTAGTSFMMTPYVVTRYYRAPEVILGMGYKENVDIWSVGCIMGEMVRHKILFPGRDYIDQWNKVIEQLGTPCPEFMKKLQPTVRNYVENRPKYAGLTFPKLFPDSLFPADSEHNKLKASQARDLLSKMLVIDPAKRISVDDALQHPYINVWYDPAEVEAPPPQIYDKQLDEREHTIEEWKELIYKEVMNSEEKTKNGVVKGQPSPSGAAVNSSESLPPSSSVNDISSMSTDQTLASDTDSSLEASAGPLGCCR
UniProt P27361, whole entry: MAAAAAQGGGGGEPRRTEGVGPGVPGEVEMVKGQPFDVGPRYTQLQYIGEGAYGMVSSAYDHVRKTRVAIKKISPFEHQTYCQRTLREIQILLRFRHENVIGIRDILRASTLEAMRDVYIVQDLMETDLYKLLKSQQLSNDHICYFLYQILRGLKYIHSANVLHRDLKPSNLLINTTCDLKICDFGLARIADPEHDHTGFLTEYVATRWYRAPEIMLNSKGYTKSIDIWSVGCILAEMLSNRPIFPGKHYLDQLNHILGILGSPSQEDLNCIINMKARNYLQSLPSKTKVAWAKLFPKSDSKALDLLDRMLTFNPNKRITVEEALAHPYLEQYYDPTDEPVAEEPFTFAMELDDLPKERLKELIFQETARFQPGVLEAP
UniProt P28482, whole entry: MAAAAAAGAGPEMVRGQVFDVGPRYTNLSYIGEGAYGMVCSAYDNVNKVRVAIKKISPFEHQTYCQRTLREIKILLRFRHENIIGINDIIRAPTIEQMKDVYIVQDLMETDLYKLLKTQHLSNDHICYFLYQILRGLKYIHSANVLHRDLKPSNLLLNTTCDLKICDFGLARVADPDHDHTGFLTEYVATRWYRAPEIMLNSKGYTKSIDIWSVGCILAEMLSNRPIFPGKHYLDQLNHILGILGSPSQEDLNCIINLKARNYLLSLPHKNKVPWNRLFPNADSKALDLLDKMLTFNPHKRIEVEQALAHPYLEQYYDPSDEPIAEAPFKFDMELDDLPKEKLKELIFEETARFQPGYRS

Assay [1] has as its target Mitogen-activated protein kinase 9 (Homo sapiens, UniProt P45984). Kind of assay: Inhibition of JNK2 (unknown origin) by HotSpot assay.
Assay [2] deals with Mitogen-activated protein kinase 10 (Homo sapiens, UniProt P53779). The assay is described as follows: Inhibition of JNK3 (unknown origin).
Assay [3] concerns the target Mitogen-activated protein kinase 3 (Homo sapiens, UniProt P27361). Kind of assay: Inhibition of human recombinant ERK1.
In assay [4] the target is Mitogen-activated protein kinase 1 (Homo sapiens, UniProt P28482). The assay is described as follows: Inhibition of human recombinant ERK2.

As a reminder, the IC50 is the point on the concentration scale where inhibition reaches its midpoint.

On to `NC(=O)N1Cc2nc(-c3ccc(Cl)c(Cl)c3)n(-c3ccnc(NC4CCN(C(=O)C5CC5)C4)n3)c2C1` (centres undefined), for which the values for the IC50 in assay [1] and in assay [2] were 225 nM and 2.69 nM, respectively.
Turning to `Nc1n[nH]c2nnc(-c3c(-c4ccccc4)nn4ccccc34)cc12`, the IC50 in assay [3] came out at 510 nM; in assay [4] it was 330 nM.
